The numbers were not newly measured in US7445791B2, “Synergistic insecticidal composition containing Chloronicotynyle and Organosphosphorus compounds” (priority 2004, dated 2008), which cites them from elsewhere.

Each structure is given as a SMILES string.

This series deals with crop plants. Particulars: cited from earlier work.

Take `CCN(CC)C(=O)C(Cl)=C(C)OP(=O)(OC)OC` [Phosphamidon, 2-chloro-2-diethylcarbamoyl-1-methylvinyldimethylphosphate]: the “phytotoxicity to crop plants (in words)” value was “non-phytotoxic”.
